Chains of the proteins cited; added tags and fusions are not shown.
UniProt P32245, whole entry H158R: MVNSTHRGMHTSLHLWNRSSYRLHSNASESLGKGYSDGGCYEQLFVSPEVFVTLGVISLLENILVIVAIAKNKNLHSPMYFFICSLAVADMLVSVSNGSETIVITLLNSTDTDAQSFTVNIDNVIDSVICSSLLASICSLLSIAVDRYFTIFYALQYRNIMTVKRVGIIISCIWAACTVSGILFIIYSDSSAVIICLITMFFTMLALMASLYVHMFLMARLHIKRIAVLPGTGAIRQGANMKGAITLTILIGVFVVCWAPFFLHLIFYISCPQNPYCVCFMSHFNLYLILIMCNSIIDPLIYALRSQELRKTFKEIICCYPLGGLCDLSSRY

In article PMC7072973, “Differential Signaling Profiles of MC4R Mutations with Three Different Ligands” (International Journal of Molecular Sciences, 2020):

Target: MC4R H158R (Homo sapiens, UniProt P32245, H158R)
Format: cell-based
Parameters: expressed in transfected cells; host or cells: HEK293
Details: HEK293, β-arrestin2, 5 min, mean ± SEM, 3 to 7 experiments in triplicates
Description: A total of 16–20 h after transfection in 6-well plates, cells were detached, and cell number was adjusted to 2.2 × 10^5 cells/mL in Opti-MEM without phenol red supplemented with 4% FBS. Cells were divided into two pools, adding either the acceptor NanoBRET™ Ligand 618 (1 µL/mL cells of 0.1 mM solution) or the same amount of DMSO as background control. After reseeding 90 µL cell suspension/well into a white 96-well plates, incubation was continued for 4–6 h.
For measurements, 25 µL of NanoBRET™ substrate was injected using a plate reader (Mithras LB 940). Donor and acceptor emission were measured at 460 nm and 610 nm, respectively, and the BRET ratio was calculated by dividing acceptor emission by donor emission:(1) BRET ratio =emissionacceptor/emissiondonor
The ratio was corrected for background bleed through by subtracting of the background ratio (no acceptor DMSO control) and conversion to milliBRET units (mBU):(2) corrected BRET ratio [mBU]=(BRET ratiosample−BRET rationo acceptor control)×1000
To calculate the difference between stimulated and basal interaction, the NET BRET was acquired using the formula:(3) NET BRET = corrected BRET ratiostim− corrected BRET ratiobasal

## CSCC[C@H](NC(=O)[C@H](CCCNC(=N)N)NC(=O)[C@H](Cc1ccc(O)cc1)NC(=O)[C@@H]1CCCN1C(=O)CNC(=O)[C@H](CCC(=O)O)NC(=O)[C@H](CC(=O)O)NC(=O)[C@H](CCCCN)NC(=O)[C@H](CCCCN)NC(=O)[C@H](CCC(=O)O)NC(=O)[C@H](C)N)C(=O)N[C@@H](CCC(=O)O)C(=O)N[C@@H](Cc1c[nH]cn1)C(=O)N[C@@H](Cc1ccccc1)C(=O)N[C@@H](CCCNC(=N)N)C(=O)N[C@@H](Cc1c[nH]c2ccccc12)C(=O)NCC(=O)N[C@@H](CO)C(=O)N1CCC[C@H]1C(=O)N1CCC[C@H]1C(=O)N[C@@H](CCCCN)C(=O)N[C@@H](CC(=O)O)C(=O)O [β-MSH, β-melanocyte stimulating hormone]
  Emax: 1.68 fold over WT basal
